Earlier results as cited in US5686426A, “Dicarboxymethylated glycolipid derivatives as cell adhesion inhibitors” (Bristol-Myers Squibb Company, priority 1994, dated 1997).

Target: T1, P-selectin (Homo sapiens, UniProt P16109)
T1 sequence (P16109 42-830): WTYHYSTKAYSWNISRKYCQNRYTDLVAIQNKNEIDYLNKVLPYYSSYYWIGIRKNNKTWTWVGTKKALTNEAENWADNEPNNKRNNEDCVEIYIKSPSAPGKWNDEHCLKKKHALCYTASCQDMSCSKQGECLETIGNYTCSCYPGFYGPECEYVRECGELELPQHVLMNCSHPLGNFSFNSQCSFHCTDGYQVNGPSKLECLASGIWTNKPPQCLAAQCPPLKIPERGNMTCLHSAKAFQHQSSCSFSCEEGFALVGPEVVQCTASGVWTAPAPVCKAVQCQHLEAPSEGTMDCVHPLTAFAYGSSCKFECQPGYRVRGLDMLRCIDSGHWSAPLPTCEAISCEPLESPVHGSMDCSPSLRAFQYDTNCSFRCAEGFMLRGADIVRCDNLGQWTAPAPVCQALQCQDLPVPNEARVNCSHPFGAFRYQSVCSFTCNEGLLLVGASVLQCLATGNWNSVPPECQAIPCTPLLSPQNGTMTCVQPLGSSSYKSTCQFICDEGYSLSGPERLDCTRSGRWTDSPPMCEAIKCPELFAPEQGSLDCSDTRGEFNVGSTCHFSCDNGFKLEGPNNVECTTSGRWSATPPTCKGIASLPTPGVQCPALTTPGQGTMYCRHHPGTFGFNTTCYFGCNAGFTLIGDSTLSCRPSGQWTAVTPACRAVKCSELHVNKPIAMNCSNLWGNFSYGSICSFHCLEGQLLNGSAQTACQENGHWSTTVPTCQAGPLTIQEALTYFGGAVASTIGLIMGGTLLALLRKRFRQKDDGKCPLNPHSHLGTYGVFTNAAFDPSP
Details: literature; cited from earlier work

sialyl-Lewis^x
binding to P-selectin (in words): shown to bind
